# Measured affinities in a library of Ab-14 heavy chain variants

All variants were tested on one target, the spike HR2 peptide PDVDLGDISGINAS (SARS-CoV-2).

Parent: Ab-14, a human scFv built as VH, a 15-residue (Gly4Ser)3 linker, VL. Only the CDRs of the heavy chain vary.
VH: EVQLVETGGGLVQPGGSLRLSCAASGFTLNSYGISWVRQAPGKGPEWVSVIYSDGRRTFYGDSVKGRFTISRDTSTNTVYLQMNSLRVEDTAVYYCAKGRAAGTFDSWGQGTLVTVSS
VL: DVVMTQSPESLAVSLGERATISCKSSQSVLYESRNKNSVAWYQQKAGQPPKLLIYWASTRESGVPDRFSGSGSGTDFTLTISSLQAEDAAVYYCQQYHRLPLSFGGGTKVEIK

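The starting antibody came from a phage panning campaign against this peptide. Library AAYL49 holds single substitutions and randomly drawn double and triple substitutions in the CDRs. The assay is AlphaSeq: two haploid yeast populations carry antibody and antigen on their surface. Binding brings cells together so that they mate, and sequencing counts the barcode pairs among the diploids. A regression on co-assayed BCL2-family reference pairs converts the normalised counts of each replicate to an apparent Kd. The assay was run in three technical replicates.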

Changes read parent residue, position, new residue, counted from the first residue of the VH shown.
Numbers give log10(Kd / nM), so 0 is 1 nM and 3 is 1 µM. Smaller is tighter.
Replicates are averaged; those with no signal do not enter the mean.
Where no diploid with the target was found in that replicate, the entry reads "n.d.": below detection, most likely a poor binder, though not proof of it.
Nonspecific signal, from three strains lacking the peptide, appeared in 15% of pairings of library AAYL49, centred on 4.06 (5% of these signals below 2.83); values are not corrected for it. For each scFv, signals with the empty controls are counted beside the result, with their mean in brackets.

{"changes": "Y32H+R56W+D106Q", "log10 Kd, replicates": "n.d. / n.d. / n.d.", "mean log10 Kd (nM)": "n.d.", "signal with controls": "0/9"}
{"changes": "G33E+D54V+S63P", "log10 Kd, replicates": "n.d. / n.d. / n.d.", "mean log10 Kd (nM)": "n.d.", "signal with controls": "0/9"}
{"changes": "T28P+V50T+F105S", "log10 Kd, replicates": "n.d. / n.d. / n.d.", "mean log10 Kd (nM)": "n.d.", "signal with controls": "0/9"}
{"changes": "L29K+S35G+I51C", "log10 Kd, replicates": "n.d. / 3.16 / 5.08", "mean log10 Kd (nM)": "4.12", "signal with controls": "4/9 (3.44)"}
{"changes": "I34G+S53Q+A101P", "log10 Kd, replicates": "5.61 / n.d. / 5.51", "mean log10 Kd (nM)": "5.56", "signal with controls": "6/9 (3.80)"}
{"changes": "I51W+Y60F+K65W", "log10 Kd, replicates": "n.d. / n.d. / n.d.", "mean log10 Kd (nM)": "n.d.", "signal with controls": "0/9"}
{"changes": "S31Y+A102S+G103I", "log10 Kd, replicates": "n.d. / 3.12 / 4.38", "mean log10 Kd (nM)": "3.75", "signal with controls": "0/9"}
{"changes": "F27G+S107F", "log10 Kd, replicates": "4.40 / 3.63 / 3.96", "mean log10 Kd (nM)": "4.00", "signal with controls": "3/9 (3.95)"}
{"changes": "Y32T+T58M", "log10 Kd, replicates": "4.02 / n.d. / n.d.", "mean log10 Kd (nM)": "4.02", "signal with controls": "1/9 (4.01)"}
{"changes": "G33F+G99V", "log10 Kd, replicates": "n.d. / n.d. / n.d.", "mean log10 Kd (nM)": "n.d.", "signal with controls": "2/9 (3.73)"}
{"changes": "S53G+D62S+D106K", "log10 Kd, replicates": "6.00 / 2.80 / 4.96", "mean log10 Kd (nM)": "4.59", "signal with controls": "3/9 (4.19)"}
{"changes": "I34T+V50E+V64Q", "log10 Kd, replicates": "n.d. / n.d. / n.d.", "mean log10 Kd (nM)": "n.d.", "signal with controls": "0/9"}
{"changes": "A101Q+F105V", "log10 Kd, replicates": "1.43 / 1.37 / 1.42", "mean log10 Kd (nM)": "1.40", "signal with controls": "1/9 (4.51)"}
{"changes": "Y52D+S53D+K65L", "log10 Kd, replicates": "n.d. / n.d. / n.d.", "mean log10 Kd (nM)": "n.d.", "signal with controls": "0/9"}
{"changes": "V50Q+Y60V+A101L", "log10 Kd, replicates": "n.d. / n.d. / n.d.", "mean log10 Kd (nM)": "n.d.", "signal with controls": "0/9"}
{"changes": "L29E+I51E+T104C", "log10 Kd, replicates": "n.d. / 3.48 / n.d.", "mean log10 Kd (nM)": "3.48", "signal with controls": "1/9 (3.58)"}
{"changes": "G26L+R57F+G61S", "log10 Kd, replicates": "n.d. / 4.95 / n.d.", "mean log10 Kd (nM)": "4.95", "signal with controls": "2/9 (3.47)"}
{"changes": "V50Y+R57P+V64Y", "log10 Kd, replicates": "6.14 / n.d. / n.d.", "mean log10 Kd (nM)": "6.14", "signal with controls": "3/9 (4.11)"}
{"changes": "S31W+S53H+R57K", "log10 Kd, replicates": "n.d. / n.d. / 4.19", "mean log10 Kd (nM)": "4.19", "signal with controls": "2/9 (2.91)"}
{"changes": "S31W+T58S+G103L", "log10 Kd, replicates": "n.d. / n.d. / n.d.", "mean log10 Kd (nM)": "n.d.", "signal with controls": "0/9"}

Again, the first 3 entries without any signal:

{"changes": "Y32H+R56W+D106Q", "log10 Kd, replicates": "n.d. / n.d. / n.d.", "mean log10 Kd (nM)": "n.d.", "signal with controls": "0/9"}
{"changes": "G33E+D54V+S63P", "log10 Kd, replicates": "n.d. / n.d. / n.d.", "mean log10 Kd (nM)": "n.d.", "signal with controls": "0/9"}
{"changes": "T28P+V50T+F105S", "log10 Kd, replicates": "n.d. / n.d. / n.d.", "mean log10 Kd (nM)": "n.d.", "signal with controls": "0/9"}

Data: MIT Lincoln Laboratory AlphaSeq set, Engelhart et al. 2022, doi:10.1038/s41597-022-01779-4, as distributed in FLAb.